Measured values taken from article PMC11053023 (Nature Communications, 2024).

Columns and labels:
Conditions in all cases: both partners purified
[1] = target: T1, FEM1B-elongin B-elongin C ternary complex, wild type (human, UniProt Q9UK73 1-627; Q15370 1-118; Q15369 17-112); test: ITC; SUMO fusion peptides (0.5-1 mM) titrated into 50 μM FEM1B-EB-EC in the cell, 25 °C, 20 mM Tris, 200 mM NaCl, pH 7.5, 1 mM EDTA; one-site binding model
T1 construct: FEM1B, human, full length (FEM1BFL); elongin B (EB, ELOB), human; elongin C (EC, ELOC), human; also called FEM1BFL-EB-EC; FEM1B-EB-EC; source: E. coli BL21(DE3), FEM1B and EB-EC co-expressed, purified (Ni-NTA, SEC); copies: 2 + 2 + 2

[2] = target: T1, FEM1B-elongin B-elongin C ternary …; test: as above; remark: listed apart in the source
[3] = target: T2, FEM1B-EB-EC ternary complex (human, UniProt Q9UK73 1-627; Q15370 1-118; Q15369 17-112); test: ITC; peptides (0.5-1 mM) titrated into 50 μM protein in the cell, 25 °C; 20 mM Tris, 200 mM NaCl, pH 7.5, 1 mM EDTA; one-site binding model
T2 construct: FEM1B, human, full-length (FEM1B^FL); elongin B (EB, ELOB), human; elongin C (EC, ELOC), human; written as one protomer; also called FEM1B-elongin B-elongin C; FEM1B-ELOB-ELOC; source: E. coli BL21(DE3), co-expressed, purified (Ni-NTA, SEC); copies: + +

[4] = target: T3, FEM1B-EB-EC ternary complex with FEM1B D356A/V391A/Q394A/F501A/H502A (human, UniProt Q9UK73 1-627; Q15370 1-118; Q15369 17-112, D356A | V391A | Q394A | F501A | H502A); test: ITC; SUMO fusion peptides (0.5-1 mM) titrated into 50 μM FEM1B-EB-EC in the cell, 25 °C, 20 mM Tris, 200 mM NaCl, pH 7.5, 1 mM EDTA; one-site binding model
T3 construct: FEM1B, human, full length, quintuple mutant of the aromatic (psi) pocket; elongin B (EB, ELOB), human; elongin C (EC, ELOC), human; also called 5A mutant; FEM1BFL-EB-EC D356A/V391A/Q394A/F501A/H502A; source: E. coli BL21(DE3), purified in the same way as the WT protein; copies: + +

stoichiometry N [1] | Kd [2] | stoichiometry N [2] | Binder | also measured
0.62 |  |  | VFSDLKNESGQEDKKRLLLGLDR (CDK5R1, human, C-terminal 23 residues; also called CDK5R1 23-mer; 23-aa CDK5R1 C-degron; source: E. coli BL21(DE3), purified (Ni-NTA; SEC for ITC); not shown: SUMO with (GGGS)2 linker, N-terminal, kept) [SUMO-(GGGS)2-CDK5R1 285-307 WT] | 
 | 1.9 ± 0.1 µM | 0.45 | GWTIDMRRNEPERTRSLSAPGPL (MCRIP1, human, C-terminal 23 residues; limits not given; source: E. coli BL21(DE3), purified (Ni-NTA; SEC for ITC); not shown: SUMO with (GGGS)2 linker, N-terminal, kept) [SUMO-(GGGS)2-MCRIP1 C-term 23-mer] | 
 |  |  | KKRLLLGLDR (last 10 residues of CDK5R1, human; also called 10-aa CDK5R1 C-degron; Arg/C-degron of CDK5R1) [CDK5R1 C-degron, 10-aa fragment] | Kd [3]: 7.6 µM
0.49 |  |  | KKRLLLGLDR (CDK5R1, human, C-terminal 10 residues; also called CDK5R1 10-mer; 10-aa CDK5R1 C-degron; source: E. coli BL21(DE3), purified (Ni-NTA; SEC for ITC); not shown: SUMO with (GGGS)2 linker, N-terminal, kept) [SUMO-(GGGS)2-CDK5R1 298-307 WT] | Kd [4]: 7.8 ± 2.1 µM
 |  |  | GGGSGGGSDGWIRVSSDNVADLHEKYSGSTP ((Gly-Gly-Gly-Ser)2 linker; last 23 residues of PSMB5, human; numbers count on: the peptide from its C-terminus; source: E. coli BL21(DE3), purified (Ni-NTA, ion exchange, SEC)) [PSMB5 C-degron (C-term 23-mer), SUMO fusion] | binding result [3]: binds
 | 6.8 ± 1 µM | 1.2 | HSLRAVSTDPPHHDHHDEFCLMP (BEX2, human, C-terminal 23 residues; source: E. coli BL21(DE3), purified (Ni-NTA; SEC for ITC); not shown: SUMO with (GGGS)2 linker, N-terminal, kept) [SUMO-(GGGS)2-BEX2 116-128 WT] | 
